## Curated experimental data: vapor pressure values

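The numbers are reported measurements, compiled and curated for the OPERA QSAR suite. A listed value is a point estimate from one report or more. How each value was measured is not recorded, so precision varies. Where a salt, mixture or single isomer is drawn, the source does not say that exactly this form was tested. Some entries may be limits or estimates that an upstream database listed as plain numbers.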

Vapor pressure is log10 of mmHg; the set covers 15 to 30 °C, mostly 20 to 25 °C.
"n/a" marks a cell with nothing listed here.

SMILES,name,log vapor pressure (log10 mmHg)
CC(=O)OCC(C)(C)C=NCC1(C)CC(N=CC(C)(C)COC(C)=O)CC(C)(C)C1 (stereo not given),n/a,-6.246
O=C(ON1C(=O)CCC1=O)ON1C(=O)CCC1=O,Di(succinimido) carbonate,-6.058
CO[C@@H]1C=CO[C@]2(C)Oc3c(C)c(O)c4c(c3C2=O)C(=O)C(N)=C(NC(=O)C(C)=CC=C[C@@H](C)[C@@H](O)[C@H](C)[C@H](O)[C@H](C)[C@@H](OC(C)=O)[C@H]1C)C4=O,n/a,-7.813
CC(C)OP(=O)(CP(=O)(OC(C)C)OC(C)C)OC(C)C,Tetraisopropyl methylenediphosphonate,-3.757
CN[C@@H](C)c1cccc(O)c1,"Phenol, 3-[(1S)-1-(methylamino)ethyl]-",-6.235
CN1CCCCC1CCO (stereo not given),"2-Piperidineethanol, 1-methyl-",-1.493
C=CCCCCCCCCO,9-Decen-1-ol,-1.426
O=S(=O)([O-])c1ccc(O)c(/N=N/c2ccc3c(O)cccc3c2O)c1.[Na+],"C.I. Mordant Black 9, monosodium salt",-7.498
CCCCCCCCCCCCCCCC(=O)OCCOc1cccc(OCCOC(=O)CCCCCCCCCCCCCCC)c1,n/a,-9.011
O=C([O-])C(O)C(O)C(=O)[O-].[K+].[Na+] (stereo not given),Potassium sodium tartrate,-7.307
CCCCCCCCCC(C)C=O (stereo not given),2-Methylundecanal,-1.745
COC1(C(F)(C(F)(F)F)C(F)(F)F)OC(F)(C(F)(C(F)(F)F)C(F)(F)F)C(F)(F)C1(F)F (stereo not given),"2-Methoxyperfluoro(2,5-di(propan-2-yl)oxolane)",-0.079
CN1CCOCC1,4-Methylmorpholine,1.235
C=C(OCC)C1C(C)(C)CC(=O)CC1(C)C,"4-(1-Ethoxyethenyl)-3,3,5,5-tetramethylcyclohexanone",-2.324
Cc1ncc([N+](=O)[O-])n1CCO,Metronidazole,-6.523
CN(C)CCOCCN(C)C,Bis[2-(dimethylamino)ethyl]ether,-0.351
Cc1cc(C#N)c(Nc2ccccc2[N+](=O)[O-])s1,5-Methyl-2-((2-nitrophenyl)amino)-3-thiophenecarbonitrile,-6.211
CC/C=C\CCOC(=O)c1ccccc1O,(3Z)-Hex-3-en-1-yl salicylate,-2.949
C=CCOCC=C,"1-Propene, 3,3'-oxybis-",1.638
CCCCCCC(CCCCCCCCCCC(=O)OCC(COC(=O)CCCCCCCCCCC(CCCCCC)OC(C)=O)OC(=O)CCCCCCCCCCC(CCCCCC)OC(C)=O)OC(C)=O (stereo not given),n/a,-10.01
CC(O)CO.CCCCN(CCO)CCCC.O=C(O)/C=C\C(=O)O,n/a,-5.634
N#CCCNCCCCCCNCCC#N,"3,3'-(Hexane-1,6-diyldiazanediyl)dipropanenitrile",-6.227
Cc1ccc(C(N)=O)c(O)c1,4-Methylsalicylamide,-6.072
C/C=C/CCc1ccc(-c2ccc(C)cc2)cc1,"4-Methyl-4'-[(3E)-pent-3-en-1-yl]-1,1'-biphenyl",-5.803
CC(C)C1OCCN1CCO (stereo not given),"3-Oxazolidineethanol, 2-(1-methylethyl)-",-3.222
CCC[C@H]1CC[C@H]([C@H]2CC[C@H](c3ccc(-c4cc(F)c(F)c(F)c4)c(F)c3)CC2)CC1,n/a,-6.907
C=CC(C)(CCC=C(C)C)OC(C)OCC (stereo not given),"1,6-Octadiene, 3-(1-ethoxyethoxy)-3,7-dimethyl-",-1.38
CCCCOC(=O)C1CCC(O)CC1 (stereo not given),4-Hydroxy-cyclohexanecarboxylic acid butyl ester,-3.498
COCc1ccc(C=O)o1,"2-Furancarboxaldehyde, 5-(methoxymethyl)-",-1.745
CNC(=O)c1ccc(-c2cnc3ncc(Cc4ccc5ncccc5c4)n3n2)cc1F,Capmatinib,-9.98
CCC(F)(OC(F)(F)F)C(F)(F)F (stereo not given),"1,1,1,2-Tetrafluoro-2-(trifluoromethoxy)butane",2.581
CC(C)=CCC/C(C)=C/COC=O,Geranyl formate,-1.037
CC(C)(O)c1ccccc1,2-Phenylpropan-2-ol,-0.71
CC(c1ncncc1F)C(O)(Cn1cncn1)c1ccc(F)cc1F.CC1(C)C2CCC1(CS(=O)(=O)O)C(=O)C2 (stereo not given),n/a,-9.694
CCCCCCCCCC(=O)Oc1ccc(C(=O)O)cc1,4-decanoyloxybenzoic Acid,-5.063
CC(=O)NCCO,N-(2-Hydroxyethyl)acetamide,-2.559
CC=C(C)C#N,2-Methyl-2-butenenitrile,1.871
NCCCCCN,Cadaverine,1.106
Clc1ccc(-c2cc(Cl)cc(Cl)c2Cl)c(Cl)c1,"2,2',3,4',5-Pentachlorobiphenyl",-4.245
CCc1ccc2c(c1)C(=O)c1ccccc1C2=O,2-Ethylanthraquinone,-6.046
CCC(C)(C)C1CCCCC1OC(C)=O (stereo not given),2-(2-Methylbutan-2-yl)cyclohexyl acetate,-1.498
O=C1CCC(=O)N1Br,"1-Bromopyrrolidine-2,5-dione",-4.69
CC(NCCCCCCNC(C)C(C)(C)C)C(C)(C)C (stereo not given),"1,6-Hexanediamine, N1,N6-bis(1,2,2-trimethylpropyl)-",-3.354
CC(C)[C@@]12CC[C@@](C)(O1)[C@@H](O)C2 (relative stereo),n/a,-0.292

Source: data files of OPERA 2.9 (Mansouri et al.), github.com/kmansouri/OPERA.